US4305872A, “Polypeptide derivatives” (priority 1979, dated 1981)

Tested on: guinea pig ileum (opiate receptor site)
Assay: Guinea pig ileum (GPI) assay for enkephalin activity, electrically stimulated contractions
Settings: Naloxone added to the bath in presence of Methadone; FIG. 3

C=CCN1CC[C@]23c4c5ccc(O)c4O[C@H]2C(=O)CC[C@@]3(O)[C@H]1C5 [Naloxone]
antagonism of opiate block: return of contractions: the contractions immediately return
